From patent US10662156B2, “Guanidine derivative and medical use thereof” (Toray Industries, Inc., priority 2016, dated 2020)
pIC50: −log10 of the molar value.

Protein sequences, listed by entry. Tags and fused reporters are not part of them.
UniProt Q9UDY8, whole entry: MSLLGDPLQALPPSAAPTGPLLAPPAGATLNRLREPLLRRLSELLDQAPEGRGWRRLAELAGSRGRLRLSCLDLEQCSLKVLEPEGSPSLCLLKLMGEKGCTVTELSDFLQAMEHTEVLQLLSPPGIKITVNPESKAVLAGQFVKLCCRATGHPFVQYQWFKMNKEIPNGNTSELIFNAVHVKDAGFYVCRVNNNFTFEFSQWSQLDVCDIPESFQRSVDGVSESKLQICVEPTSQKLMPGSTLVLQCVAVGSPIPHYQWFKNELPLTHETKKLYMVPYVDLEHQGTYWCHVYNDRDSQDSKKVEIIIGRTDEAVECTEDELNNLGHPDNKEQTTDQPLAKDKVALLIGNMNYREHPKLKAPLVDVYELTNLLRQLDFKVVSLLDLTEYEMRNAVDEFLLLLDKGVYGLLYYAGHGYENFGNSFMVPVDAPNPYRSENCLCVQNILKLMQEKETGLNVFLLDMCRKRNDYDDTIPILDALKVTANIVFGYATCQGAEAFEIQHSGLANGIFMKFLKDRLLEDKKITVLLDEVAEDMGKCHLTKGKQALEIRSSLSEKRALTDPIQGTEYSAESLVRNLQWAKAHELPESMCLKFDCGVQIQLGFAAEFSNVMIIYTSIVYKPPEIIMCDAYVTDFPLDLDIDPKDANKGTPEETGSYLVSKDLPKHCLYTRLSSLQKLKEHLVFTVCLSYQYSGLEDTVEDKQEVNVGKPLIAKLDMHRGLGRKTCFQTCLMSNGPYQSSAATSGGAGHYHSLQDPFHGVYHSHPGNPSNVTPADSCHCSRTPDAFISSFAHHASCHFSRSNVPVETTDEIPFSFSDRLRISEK

Target: recombinant GST fusion MALT1 (human MALT1) (Homo sapiens (Human), UniProt Q9UDY8)
Experiment: Evaluation of inhibition of protease activity of MALT1 (cleavage of fluorescent peptide substrate Ac-LRSR-AMC)
Conditions: substrate Ac-LRSR-AMC 20 μmol/L, 30° C. for 80 minutes
Experimental: The guanidine derivative (I) or the pharmacologically acceptable salt thereof was evaluated for its inhibition of the protease activity of MALT1 in an in vitro experimental system in accordance with the method described in the literature (Cancer Cell, 2012, Vol. 22, p. 825-837). Specifically, the evaluation was conducted by measuring the degree of reduction in fluorescence value by the compound relative to elevation in fluorescence value resulting from the cleavage of a fluorescently labeled artificial peptide substrate by recombinant MALT1.
A) Preparation of Recombinant GST Fusion MALT1:
Full-length cDNA of human MALT1 gene (GenBank accession No: AB026118.1) amplified by PCR was inserted in flame to a SalI site located downstream of GST gene in a pGEX6P3 vector (GE Healthcare Japan Corp.) to prepare a vector (hereinafter, referred to as a pGEX6P3-MALT1 vector). Subsequently, E. coli for protein expression (BL21-RIL-codon plus-DE3, Agilent Technologies, Inc.) was transformed with the pGEX6P3-MALT1 vector and then analyzed by ampicillin resistance screening and colony PCR to obtain an E. coli strain expressing recombinant GST fusion MALT1. […]
The fluorescence value of the first measurement was defined as “F1”, and the fluorescence value of the second measurement was defined as “F2”. […]

Compound	pIC50
NC(=NC(=O)c1ccccc1)NCc1cc(-c2ccc(Cl)cc2)c(-c2ccc(Cl)cc2)cn1	6.76
NC(=NS(=O)(=O)c1ccccc1)NCc1cc(-c2ccc(Cl)cc2)c(-c2ccc(Cl)cc2)cn1	6.72
